## Yeast mating assay B: variants of the scFv Ab-14

Data: MIT Lincoln Laboratory AlphaSeq set, Li et al. 2023, doi:10.1038/s41467-023-39022-2, as distributed in FLAb.

Target: peptide PDVDLGDISGINAS, taken from heptad repeat 2 (HR2) of SARS-CoV-2 spike.

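Phage display of a naive human antibody library on the peptide gave the parent. The variants were designed computationally from a first round of random CDR variants and then made and measured. Several design methods are mixed in this list. AlphaSeq pools MATa yeast showing the antibodies with MATalpha yeast showing the peptide. Binding brings cells together so that they mate, and sequencing counts the barcode pairs among the diploids. Each replicate has its own calibration line, from reference interactions of the BCL2 family. Mating was done six times.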

Ab-14 is the parent antibody, in scFv form: VH, then a (GGGGS)3 linker, then VL. The light chain is unchanged in all variants.
VH: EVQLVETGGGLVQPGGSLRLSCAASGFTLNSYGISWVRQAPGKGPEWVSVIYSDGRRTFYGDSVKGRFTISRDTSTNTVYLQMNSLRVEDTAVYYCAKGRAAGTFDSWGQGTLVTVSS
VL: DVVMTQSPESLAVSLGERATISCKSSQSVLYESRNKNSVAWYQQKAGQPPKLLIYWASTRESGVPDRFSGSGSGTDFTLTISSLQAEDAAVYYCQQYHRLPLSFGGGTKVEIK

Each variant is given by its three heavy chain CDRs, as the data file delimits them; those of the parent are GFTLNSYGIS, VIYSDGRRTFYGDSVK, GRAAGTFDS. Variants here have more than six changes. Values are log10 of the apparent Kd in nM; lower means stronger binding. Averages over replicates are reported, and they cover detected replicates only. "nd" means that the variant was in the library but no mating with the target was seen in any replicate; the authors take this as a sign of poor binding, and no number exists. The authors' rule: three or more of the six replicates give a measured affinity, fewer mean a poor binder.

For GFDLNEYGIS, VIYADGMRTAYADNVK, GETAGTFDQ, the assay gave 0.15 (6 of 6 replicates; controls 0 of 18).
For GFDLNEYGIS, VIYADGMRTFYADSVK, GSNAGTFDM, the assay gave -0.61 (6 of 6 replicates; controls 1 of 18).
For GFDLNEYGIS, VIYADGRRTFYTDSVK, GNFAGTFDQ, the assay gave -0.52 (6 of 6 replicates; controls 0 of 18).
For GFDLNEYGIS, VIYADGRRTSYKDSVK, GETAGTFDV, the assay gave 1.24 (4 of 6 replicates; controls 0 of 18).
For GFDLNEYGIS, VIYADGQRTAYADSVK, GNVAGTFDM, the assay gave -0.35 (6 of 6 replicates; controls 2 of 18).
For GFDLDEYGIS, VIYADGMRTVYADSVK, GNVAGTFDI, the assay gave -1.32 (6 of 6 replicates; controls 0 of 18).
For GFDLNEYGIS, VIYADGRRTFYADSVK, GEVAGTFVL, the assay gave 0.39 (6 of 6 replicates; controls 0 of 18).
For GFDLDEYGIS, VIYADGMRTAYADSVK, GTNAGTFDV, the assay gave -1.20 (6 of 6 replicates; controls 0 of 18).
For GFDLNEYGIS, VIYADGMRTAYANDVK, GNVAGTFDL, the assay gave -0.59 (6 of 6 replicates; controls 0 of 18).
For GFDLNEYGIS, VIYADGRRTYYADSVK, GTNAGTFDQ, the assay gave -0.78 (6 of 6 replicates; controls 0 of 18).
For GFELDEYGIS, VIYADGKRKFYDQTVK, GKTDGVILD, the assay gave 1.91 (2 of 6 replicates; controls 0 of 18).
For GFDLNEYGIS, VIYADGVRTFYVDSVK, GETAGTFDF, the assay gave -0.17 (6 of 6 replicates; controls 0 of 18).
For GQNLDEYGIS, VIYADGMRKQYADSVK, GNMLVGMVA, the assay gave 1.92 (1 of 6 replicates; controls 1 of 18).
For GNNLDEYGIS, VIYADGQRSAYAQDVK, GETGDNAMT, the assay gave nd (0 of 6 replicates; controls 0 of 18).
For GFDLNEYGIS, VIYADGMRTSYADDVK, GTNAGTFDV, the assay gave -0.25 (6 of 6 replicates; controls 0 of 18).
For GFDLNEYGIS, VIYADGMRTYYVDSVK, GNVAGTFDV, the assay gave -0.15 (6 of 6 replicates; controls 0 of 18).
For GFDLNEYGVS, VIYADGQRTYYTESVK, GNFWDQLFV, the assay gave 0.13 (6 of 6 replicates; controls 0 of 18).
For GFDLNEYGIS, VIYADGRRTAYSDSVK, GGNAGTFDS, the assay gave 1.07 (6 of 6 replicates; controls 0 of 18).
For GFSLEEYGIS, VIYADGKRTFYVNAVK, GTWGDFGLG, the assay gave 2.38 (1 of 6 replicates; controls 0 of 18).
For GFDLNEYGIS, VIYADGMRTAYADKVK, GGNAGTFDI, the assay gave -0.64 (6 of 6 replicates; controls 0 of 18).
For GFSFQEYGIS, VIYADGKRTFYANTVK, GGKDAAFDI, the assay gave 2.14 (1 of 6 replicates; controls 0 of 18).
For GFSLDEYGIS, VIYADGMRTATVNSVK, GTIDNNITT, the assay gave nd (0 of 6 replicates; controls 1 of 18).
For GFNLDEYGIS, VIYADGRRTAYAESVK, NSVMSGRVT, the assay gave nd (0 of 6 replicates; controls 0 of 18).
For GFDLNEYGIS, VIYADGVRTAYVDNVK, GEVAGTFDV, the assay gave -0.49 (6 of 6 replicates; controls 0 of 18).
For GFDLNEYGIS, VIYADGMRKAYADSVK, GNNAGTFDQ, the assay gave -0.24 (6 of 6 replicates; controls 0 of 18).
For GFGLDEYGIS, VIYADGMRAQYATNVK, GYEAGVFST, the assay gave nd (0 of 6 replicates; controls 1 of 18).
For GFQLDEYGIS, VIYADGMRTFYQDSVK, GEVAGTFDS, the assay gave 0.29 (6 of 6 replicates; controls 0 of 18).
For GFSLDEYGIS, VIYADGRRTFYADDVK, GNVAGTFDV, the assay gave -0.93 (6 of 6 replicates; controls 0 of 18).
For GFDLNEYGIS, VIYADGRRTFYADSVK, GEVAGTFDV, the assay gave -0.37 (6 of 6 replicates; controls 1 of 18).
For GFQINEYGIS, VIYADGLRTAYSQQVK, GQDLVNFVD, the assay gave nd (0 of 6 replicates; controls 0 of 18).
For GFDLNEYGIS, VIYADGVRTAYVDSVK, GNVAGTFDI, the assay gave -0.41 (6 of 6 replicates; controls 1 of 18).
For GFDLNEYGIS, VIYADGMRTAYTDSVK, GEVAGTFDS, the assay gave 2.18 (2 of 6 replicates; controls 0 of 18).
For GFDLNEYGIS, VIYADGMRTVYADSVK, GENAGTFDL, the assay gave -0.05 (6 of 6 replicates; controls 0 of 18).
For GFDLDEYGIS, VIYADGMRTAYIDSVK, GNVAGTFDI, the assay gave -0.68 (6 of 6 replicates; controls 0 of 18).
For GFDLNEYGIS, VIYADGRRTAYTDSVK, GEIAGTFDS, the assay gave -0.59 (6 of 6 replicates; controls 0 of 18).
For GFDILEYGIS, VIYADGQRTAYKPTVK, GNHTGLVFI, the assay gave nd (0 of 6 replicates; controls 0 of 18).
For GQDLQEYGVS, VIYADGSRTAYADSFK, GQSLGNIVQ, the assay gave nd (0 of 6 replicates; controls 0 of 18).
For GFDLDEYGIS, VIYADGRRTFYVDSVK, GQNAGTFDQ, the assay gave 0.11 (6 of 6 replicates; controls 0 of 18).
For GFDLNEYGIS, VIYADGRRTFYTDNVK, GQNAGTFDV, the assay gave -0.13 (6 of 6 replicates; controls 0 of 18).
For GFDLNEYGIS, VIYADGKRTAYSDSVK, GNNAGTFDQ, the assay gave -0.34 (6 of 6 replicates; controls 1 of 18).
For GDNLDEYGIS, VIYADGQRTAYSDPVK, GEFTVTVGK, the assay gave 2.12 (2 of 6 replicates; controls 0 of 18).
For GFDLNEYGIS, VIYADGRRTAYSDSVK, GEVAGTFVS, the assay gave 0.27 (6 of 6 replicates; controls 0 of 18).
For GFDLNEYGIS, VIYADGRRTAYTDSVK, GQLAGTFDV, the assay gave -1.21 (6 of 6 replicates; controls 0 of 18).
For GFDLNEYGIS, VIYADGMRTAYTDSVK, GNTAGTFDQ, the assay gave -0.36 (6 of 6 replicates; controls 0 of 18).
For GFDLSEYGIS, VIYADGTRKSYADNVK, GDYHYVVST, the assay gave nd (0 of 6 replicates; controls 1 of 18).

Picked from the list: the 3 lowest averages where every replicate gave a value.

CDR-H1,CDR-H2,CDR-H3,"mean, log10 nM",replicates with signal,signal with controls
GFDLDEYGIS,VIYADGMRTVYADSVK,GNVAGTFDI,-1.32,6 of 6,0 of 18
GFDLNEYGIS,VIYADGRRTAYTDSVK,GQLAGTFDV,-1.21,6 of 6,0 of 18
GFDLDEYGIS,VIYADGMRTAYADSVK,GTNAGTFDV,-1.20,6 of 6,0 of 18

Three control strains display no target. For all heavy chain designs, 1% of the pairings with them gave a signal, with a median of 2.08 and one signal in twenty below 0.84, so weak values seen in few replicates may be background. Also given: how often the same scFv was detected with the empty control strains. Values of this round are not directly comparable with the first-round values of the same sequences.